Among the data in patent publication US5716929A (Vertex Pharmaceuticals, Inc., priority 1995, dated 1998) are Ki and IC50 values, retold here.

The chains behind the UniProt entries cited, without tags or fusion partners. Residues count along the entry.
UniProt P29466, 120-297 limits assumed: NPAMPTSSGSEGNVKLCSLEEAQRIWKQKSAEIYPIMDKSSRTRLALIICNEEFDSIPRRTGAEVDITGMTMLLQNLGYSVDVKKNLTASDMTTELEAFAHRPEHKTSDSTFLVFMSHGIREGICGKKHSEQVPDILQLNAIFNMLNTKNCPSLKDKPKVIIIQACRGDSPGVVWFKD
UniProt P29466, 317-404 limits assumed: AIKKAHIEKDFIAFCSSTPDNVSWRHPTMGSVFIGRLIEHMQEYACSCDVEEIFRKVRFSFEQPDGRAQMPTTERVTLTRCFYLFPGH

In test [1] the target is interleukin-1β converting enzyme (ICE) (Homo sapiens, UniProt P29466). As to the kind of experiment: Enzyme assay with UV-visible substrate (Succinyl-Tyr-Val-Ala-Asp-pNitroanilide). The class given is biochemical. The following applies: read-out: UV-visible Ki, Example 4 table.
The test system of test [2] is mature IL-1β, Human Peripheral Blood Mononuclear Cells (PBMC). As to the kind of experiment: Cell assay: IL-1β assay with human PBMC or enriched adherent mononuclear cells. The following applies: read-out: Cell IC50; Example 4 table; LPS-stimulated cells, mature IL-1β by ELISA. (An ELISA detects its analyte on a solid surface through an enzyme-linked reagent.)

Each structure is given as a SMILES string.

As usually defined, the Ki is the equilibrium dissociation constant of an inhibitor or competing ligand from its target. As a reminder, the IC50 is the midpoint of a concentration-inhibition curve.

For the compound `COc1cccc2oc(C(=O)[C@H](CC(=O)O)NC(=O)[C@H](C)NC(=O)[C@@H](NC(=O)[C@H](Cc3ccc(O)cc3)NC(C)=O)C(C)C)nc12`, the Ki in test [1] stood at 50 nM. The IC50 in test [2] came to 745 nM.
